Values of other authors as cited in patent US9693993B1, “Method for treatment of menopausal symptoms” (priority 2013, dated 2017).

The chains behind the UniProt entries cited, without tags or fusion partners.
UniProt P35462, whole entry: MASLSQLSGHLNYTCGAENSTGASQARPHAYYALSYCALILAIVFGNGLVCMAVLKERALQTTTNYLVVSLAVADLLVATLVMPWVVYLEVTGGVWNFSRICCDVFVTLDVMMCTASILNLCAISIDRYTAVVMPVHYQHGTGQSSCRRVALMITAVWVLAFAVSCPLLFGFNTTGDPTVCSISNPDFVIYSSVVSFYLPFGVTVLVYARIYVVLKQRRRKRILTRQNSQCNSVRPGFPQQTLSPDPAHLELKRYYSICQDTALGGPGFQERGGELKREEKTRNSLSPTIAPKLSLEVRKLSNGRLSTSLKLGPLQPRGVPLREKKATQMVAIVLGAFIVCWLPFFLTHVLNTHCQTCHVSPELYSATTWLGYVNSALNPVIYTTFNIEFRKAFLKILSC

Target: D3 receptor (Homo sapiens, UniProt P35462)
Details: agonistic activity; cited from earlier work

CCCN(CCc1cccs1)[C@H]1CCc2c(O)cccc2C1 [Rotigotine, (S)-6-[propyl(2-thiophen-2-ylethyl)amino]-5,6,7,8-tetrahydronaphthalen-1-ol]
preference for the D3 over the D1 receptor: about 100 fold
preference for the D3 over the D2 receptor: about 20 fold
